Measurements as given in patent US20260176279A1, “DUAL RAF AND TUBULIN INHIBITORS AND METHODS OF USE THEREOF” (Deciphera Pharmaceuticals, LLC, priority 2023, published 2026).

The chains behind the UniProt entries cited, without tags or fusion partners. Residues count along the entry.
UniProt P04049, 307-648 Y340D/Y341D: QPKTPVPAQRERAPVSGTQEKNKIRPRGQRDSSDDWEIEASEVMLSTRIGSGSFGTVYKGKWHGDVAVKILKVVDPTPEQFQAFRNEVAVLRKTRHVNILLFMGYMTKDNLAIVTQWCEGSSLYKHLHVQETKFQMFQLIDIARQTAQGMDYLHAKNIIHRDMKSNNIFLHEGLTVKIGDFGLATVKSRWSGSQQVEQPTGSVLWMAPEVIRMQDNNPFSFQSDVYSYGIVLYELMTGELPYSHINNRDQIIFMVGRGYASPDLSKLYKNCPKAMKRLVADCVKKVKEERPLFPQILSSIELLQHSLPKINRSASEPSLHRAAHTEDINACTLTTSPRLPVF
UniProt P15056, 416-766: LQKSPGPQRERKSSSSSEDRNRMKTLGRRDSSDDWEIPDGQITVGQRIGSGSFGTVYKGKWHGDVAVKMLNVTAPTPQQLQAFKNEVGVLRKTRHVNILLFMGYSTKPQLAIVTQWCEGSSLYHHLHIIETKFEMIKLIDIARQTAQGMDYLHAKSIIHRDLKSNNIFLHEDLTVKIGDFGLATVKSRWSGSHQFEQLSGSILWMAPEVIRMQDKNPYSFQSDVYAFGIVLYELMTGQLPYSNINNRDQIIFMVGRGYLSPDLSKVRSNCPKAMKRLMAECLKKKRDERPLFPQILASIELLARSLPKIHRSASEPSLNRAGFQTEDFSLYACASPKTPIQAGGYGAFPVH

Assays:
HPAF-II cells = test: HPAF-II Cell Proliferation Assay; settings: read-out: HPAF-II; Table 2, inhibition of cell proliferation
C-Raf kinase = C-Raf kinase (Homo sapiens, UniProt P04049, Y340D/Y341D); test: Biochemical Assay for C-Raf (coupled pyruvate kinase/lactate dehydrogenase assay); settings: read-out: CRAF; Table 1, inhibition of biochemical activity
HCT-116 cells = test: HCT-116 Cell Proliferation Assay; settings: read-out: HCT-116; Table 2, inhibition of cell proliferation
B-Raf kinase = B-Raf kinase (Homo sapiens, UniProt P15056); test: Biochemical Assay for B-Raf (coupled pyruvate kinase/lactate dehydrogenase assay); settings: read-out: BRAF; Table 1, inhibition of biochemical activity
MiaPaca-2 cells = test: MiaPaca-2 Cell Proliferation Assay; settings: read-out: MiaPaca-2; Table 2, inhibition of cell proliferation

Measured: IC50

Cc1ccc(NC(=O)Nc2ccc(C(F)(F)F)nc2)cc1-c1cc(OCCO)nc(C2CCOCC2)c1
< 100 nM: all assays above
